B1: chimeric antibody B16 (antibody, V domains shown)
VH: EVKLVESGGGLVQPGGSLKLSCAASGFTFTSYTMSWVRQTPEKRLEWVAYISNGGGSTYYPDTVKGRFTISRDNAKNTLYLQMSSLKSEDTAMYYCARLDWVFAYWGQGTLVTVSA
VL: DIVMTQSHKFMSTSVGDRVSITCKASQDVGTAVAWYQQKPGQSPKLLIYWASTRHTGVPDRFTGSGSGTDFTLTISNVQSEDLADYFCLQYSSFPYTFGGGTKLEIK
B2: humanized B16 antibody (antibody, V domains shown)
VH: EVQLVESGGGLVQPGGSLRLSCAASGFTFTSYTMSWVRQAPGKGLEWVSYISNGGGSTYYPDTVKGRFTISRDNSKNTLYLQMNSLRAEDTAVYYCAKLDWVFAYWGQGTLVTVSS
VL: DIQLTQSPSFLSASVGDRVTITCKASQDVGTAVAWYQQKPGKAPKLLIYWASTRHTGVPSRFSGSGSGTEFTLTISSLQPEDFATYYCLQYSSFPYTFGQGTKLEIK

By UniProt entry, the sequences of proteins in these tests, tags left out. Residues count along the entry.
UniProt P01574, 22-187: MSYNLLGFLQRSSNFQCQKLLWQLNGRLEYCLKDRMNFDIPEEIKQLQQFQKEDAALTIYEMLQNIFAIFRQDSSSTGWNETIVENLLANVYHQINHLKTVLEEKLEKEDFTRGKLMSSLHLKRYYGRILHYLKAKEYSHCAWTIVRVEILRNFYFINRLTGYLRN

How the values were obtained:
[1] = molecular target: T1, recombinant glycosylated IFN-β (Pharmapark, Moscow, Russia) (Homo sapiens, UniProt P01574, glycosylated); test: cell-based or functional assay
[2] = molecular target: T1, recombinant glycosylated IFN-β …; test: ELISA; Kd by the method of Friguet with the Klotz equation; recombinant antibody and IFN-β in solution at equilibrium, free antibody measured by ELISA; conditions: both partners purified

Binder | IC50 of the inhibition of the antiproliferative effect of IFN-β (100 pg/mL) on HT29 cells with 0.5 × 10^6 PBMC/mL, MTT; antibody 0.5–100 μg/mL [1] [µg/mL] | Kd [2] [nM]
B1 | 21.8 | 3.2
B2 | – | 3.3

From PMC8699518 (Biomolecules, 2021)
